Source: patent publication US9718808B2, “Inhibitors of the renal outer medullary potassium channel” (Merck Sharp & Dohme Corp., priority 2014, dated 2017)

Protein sequences, listed by entry. Tags and fused reporters are not part of them. Lines headed by an entry give the natural chain unless they say otherwise; changes in a name come on top.
UniProt P48048: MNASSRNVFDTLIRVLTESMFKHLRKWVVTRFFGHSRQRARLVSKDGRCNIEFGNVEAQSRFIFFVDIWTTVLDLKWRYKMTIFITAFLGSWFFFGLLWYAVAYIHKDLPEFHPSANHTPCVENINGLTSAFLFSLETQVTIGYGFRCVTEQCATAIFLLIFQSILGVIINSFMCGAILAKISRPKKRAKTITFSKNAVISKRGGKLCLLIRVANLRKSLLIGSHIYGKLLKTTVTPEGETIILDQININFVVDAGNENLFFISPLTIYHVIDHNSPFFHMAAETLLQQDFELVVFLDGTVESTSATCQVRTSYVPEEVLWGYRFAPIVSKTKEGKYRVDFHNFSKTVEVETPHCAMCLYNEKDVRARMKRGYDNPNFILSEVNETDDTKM

Target: ROMK (Kir1.1) channel (Homo sapiens (Human), UniProt P48048)
Test: Thallium Flux Assay
Format: cell-based
Method: A Thallium Flux Assay was performed on each of the final product compounds of the Examples. This assay has been described previously; see, e.g., PCT Published Application WO 2013/062900.

pIC50: 6.74
Substance: (5R,8r)-2-(4-methyl-5-oxo-2,5-dihydrofuran-3-yl)-8-(((R)-1-(4-methyl-6-(1H-tetrazol-1-yl)pyridazin-3-yl)ethyl)amino)-2-azaspiro[4.5]decan-1-one [Example 46]

pIC50: −log10 of the molar value.
